# Values of other authors as cited in patent US7553853B2, “Solid-state montelukast” (Synthon BV, priority 2003, dated 2009).
# Experiments:
# [1] = a precipitate may be formed after certain time; cited from earlier work
# [2] = cited from earlier work
substance,measurement,setting,value
Montelukast monosodium salt [Montelukast sodium],stability in aqueous solutions,[1],not stable
same,hygroscopicity,[2]; known property of the powder,hygroscopic
same,water absorbed,[2]; known solid sodium salt,up to 3 equivalents of water
